System: human duodenal organoids
Conditions: matrigel-embedded human duodenal organoids incubated in PBS containing FITC-dextran (4 kDa) for 30 minutes; fluorescence microscopy

## Fluorescein isothiocyanate-dextran [4 kDa FITC-dextrans]
  translocation into the organoid lumen: confirming translocation

Source: PMC7516017, “Organoids to Study Intestinal Nutrient Transport, Drug Uptake and Metabolism – Update to the Human Model and Expansion of Applications” (Frontiers in Bioengineering and Biotechnology, 2020)
